From patent publication US11497726B2, “Topical therapy for the treatment of cervical intraepithelial neoplasia (CIN) and cervical cancer using nanoparticles of taxanes” (DFB SORIA, LLC, priority 2018, dated 2022)

Assay: Solubility of the active in the receptor fluid
Assay type: physicochemical
Details: 96 wt % PBS pH 7.4 and 4 wt % hydroxyl propyl beta cyclodextrin

Substance: paclitaxel
- solubility of the active in the receptor fluid: ~0.4 µg/mL
